Measurements as given in US20250388534A1, “SUPRAMOLECULAR TRANEXAMIC ACID-MANDELIC ACID IONIC SALT AS WELL AS PREPARATION METHOD THEREFOR AND USE THEREOF” (SHENZHEN SHINEHIGH INNOVATION CO., LTD., priority 2022, published 2025).

Columns and labels:
[1] = Transdermal effect test, Franz cell method, cumulative permeation amount; settings: 10 wt % supramolecular ionic salt solution, mouse skin
melanoma cells (B16) = assay: Cytotoxicity test by melanoma cells (B16); assay type: cell-based

Substance: supramolecular tranexamic acid-citric acid ionic salt [Comparative Example 1]
- Permeation amount [1]: 11300 µg
- Cell viability (%) (melanoma cells (B16); 0.0006 % m/V): 81.32%
- Cell viability (%) (melanoma cells (B16); 0.0012 % m/V): 80.58%
- Cell viability (%) (melanoma cells (B16); 0.002 % m/V): 80.01%
- Cell viability (%) (melanoma cells (B16); 0.005 % m/V): 71.95%
- Cell viability (%) (melanoma cells (B16); 0.010 % m/V): 70.74%
- Cell viability (%) (melanoma cells (B16); 0.020 % m/V): 72.19%
- Cell viability (%) (melanoma cells (B16); 0.039 % m/V): 75.13%
- Cell viability (%) (melanoma cells (B16); 0.078 % m/V): 75.85%
